Laboratory results as given in US9689040B2, “Selective inhibitors of tumor-initiating cells” (Children's Medical Center Corporation, priority 2011, dated 2017).

The chains behind the UniProt entries cited, without tags or fusion partners. Residues count along the entry.
UniProt P28074, 60-263: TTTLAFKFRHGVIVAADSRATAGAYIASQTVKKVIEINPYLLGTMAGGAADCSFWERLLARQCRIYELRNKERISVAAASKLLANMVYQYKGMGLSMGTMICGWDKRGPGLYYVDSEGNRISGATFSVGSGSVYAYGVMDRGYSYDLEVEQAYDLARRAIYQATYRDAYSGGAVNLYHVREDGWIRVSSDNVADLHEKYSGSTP

Experiments:
4T1-E tumors = conditions: 4 doses at 1.0 mg/kg i.p. q3d, after 10 days
[1] = Body weight of bortezomib-treated mice; type: in vivo, mouse; conditions: 0.5 or 1.0 mg/kg i.p. q3d, 10-16 days of therapy
Procedure: For all the experiments described herein, bortezomib was given every three days (q3d), reflecting clinical protocols used in human patients, at doses of 0.5 mg/kg or 1.0 mg/kg intraperitoneally (i.p.), which were previously reported to be well-tolerated in mice.

proteasome = proteasome (Homo sapiens, UniProt P28074); test: Proteasome activity in BPLER and HMLER cells (ProteaGlo assay); conditions: 6 hr after treatment

SMILES: CC(C)C[C@H](NC(=O)[C@H](Cc1ccccc1)NC(=O)c1cnccn1)B(O)O [bortezomib]
- reduction of median tumor weight (4T1-E tumors): 56%
- weight loss [1]: did not observe any significant weight loss
- proteasomal activity in BPLER and HMLER (proteasome): decreased proteasomal activity similarly in both cell lines
